Binding of CDR-mutated scFvs to a peptide of the spike HR2 region

Data: MIT Lincoln Laboratory AlphaSeq set, Engelhart et al. 2022, doi:10.1038/s41597-022-01779-4, as distributed in FLAb.

The target is the same throughout: PDVDLGDISGINAS, from the HR2 region of SARS-CoV-2 spike.

Parent: Ab-14, a human scFv built as VH, a 15-residue (Gly4Ser)3 linker, VL. Only the CDRs of the light chain vary.
VH: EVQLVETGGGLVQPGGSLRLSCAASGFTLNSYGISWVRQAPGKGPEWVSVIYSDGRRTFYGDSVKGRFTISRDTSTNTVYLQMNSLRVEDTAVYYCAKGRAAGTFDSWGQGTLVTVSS
VL: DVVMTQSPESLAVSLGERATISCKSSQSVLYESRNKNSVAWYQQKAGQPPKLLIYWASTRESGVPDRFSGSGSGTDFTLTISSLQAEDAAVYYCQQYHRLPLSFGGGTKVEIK

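Phage display of a naive human antibody library on the peptide gave the parent. AAYL50 was designed without a model: most single CDR substitutions and a random sample of double and triple ones. The scFvs were displayed on barcoded MATa yeast, the peptide on MATalpha yeast. Mating (16 h, 30 °C) was followed by selection of diploids and sequencing of their barcodes. Each replicate has its own calibration line, from reference interactions of the BCL2 family. Each pool was mated in three replicate cultures.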

Positions count from residue 1 of the parent VL; E32W puts W in place of E. All variants listed here change N37 of the VL, counted from its first residue. Scale: log10 of Kd in nM, estimated from mating counts; low values are strong binders. Averages over replicates are reported, and they cover detected replicates only. "nd" means that the variant was in the library but no mating with the target was seen in any replicate; the authors take this as a sign of poor binding, and no number exists. Nonspecific signal, from three strains lacking the peptide, appeared in 18% of pairings of library AAYL50, centred on 4.19 (5% of these signals below 2.99); values are not corrected for it.

For E32W N37L Q95F, the assay gave 4.41 (3 of 3 replicates). For N37S A40P R60D, the assay gave nd (0 of 3 replicates). Variant L30M N37R S58D showed 0.94 (3 of 3 replicates). Variant N37R Q95E Y97R gave 5.79 (1 of 3 replicates). Variant R34S N37K S58C gave nd (0 of 3 replicates). Variant S26P N37T L102C gave 2.62 (3 of 3 replicates). For N35V N37I V39L, the assay gave 5.25 (2 of 3 replicates). Variant S25R N37I S58Q gave 3.37 (2 of 3 replicates). Variant L30P N37A Q96N gave nd (0 of 3 replicates).

Variant V29W N37D S58V showed 3.01 (3 of 3 replicates). For E32K N37C S58F, the assay gave 4.19 (1 of 3 replicates). Variant V29G N37L R60K gave nd (0 of 3 replicates). For N37Y Q96D Y97N, the assay gave nd (0 of 3 replicates). For E32V N37L V39I, the assay gave nd (0 of 3 replicates). Variant N37Y T59P Q96P showed nd (0 of 3 replicates). For N37I S38Y, the assay gave 3.16 (1 of 3 replicates). For K36G N37P Q96M, the assay gave 1.98 (3 of 3 replicates). With S28R N37E W56C the result was 3.27 (3 of 3 replicates).

With N37L R60H H98W the result was nd (0 of 3 replicates). For N37M A40Y S103M, the assay gave nd (0 of 3 replicates). With S28H N37W L100D the result was nd (0 of 3 replicates). With S25E N37Q Y97I the result was nd (0 of 3 replicates). With N37G S58K the result was nd (0 of 3 replicates). Variant S26T N37R A57F showed 3.77 (1 of 3 replicates). For N37R A40M Y97H, the assay gave 4.05 (2 of 3 replicates). With L30K E32D N37H the result was 3.02 (3 of 3 replicates). For N37K A40L A57C, the assay gave nd (0 of 3 replicates).

Variant N37E S58H T59W gave 3.15 (3 of 3 replicates). Variant Y31M E32H N37C gave 1.78 (3 of 3 replicates). With L30I S33P N37H the result was 2.27 (3 of 3 replicates). For N37Y S62W, the assay gave 1.17 (3 of 3 replicates).

The last 2 entries again:

changes	log10 Kd (nM), mean	seen in
L30I S33P N37H	2.27	3/3
N37Y S62W	1.17	3/3